# Yeast mating assay B: variants of the scFv Ab-14

Data: MIT Lincoln Laboratory AlphaSeq set, Li et al. 2023, doi:10.1038/s41467-023-39022-2, as distributed in FLAb.

Target: peptide PDVDLGDISGINAS, taken from heptad repeat 2 (HR2) of SARS-CoV-2 spike.

Each scFv is VH, a 15-residue (Gly4Ser)3 linker, VL, as in the parent Ab-14, and differs from it in the CDRs of the heavy chain only.
VH: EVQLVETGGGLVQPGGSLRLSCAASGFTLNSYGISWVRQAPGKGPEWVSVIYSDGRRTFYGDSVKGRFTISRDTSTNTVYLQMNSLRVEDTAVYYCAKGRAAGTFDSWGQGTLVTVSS
VL: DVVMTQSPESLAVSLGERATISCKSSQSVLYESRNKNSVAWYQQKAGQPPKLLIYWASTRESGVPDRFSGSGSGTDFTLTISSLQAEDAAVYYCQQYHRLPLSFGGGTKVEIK

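The parent was found by panning a naive human phage display library on the peptide. Designed CDR sequences, proposed from the first random library and measured here. Group labels follow the data file (Ctrl: baseline library sampled from a position-specific scoring matrix, with some repeated check sequences; En: ensemble of fine-tuned language models; HC: hill climbing; Gen: genetic algorithm; Gibbs: Gibbs sampling; a sequence that several methods proposed may carry one label only). In AlphaSeq, yeast of one mating type display the scFv and yeast of the other type display the target. The frequency of each diploid, read from paired DNA barcodes, reflects how well the two displayed proteins bind. A regression on co-assayed BCL2-family reference pairs converts the normalised counts of each replicate to an apparent Kd. Mating was done six times.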

Each variant is given by its three heavy chain CDRs, as the data file delimits them; those of the parent are GFTLNSYGIS, VIYSDGRRTFYGDSVK, GRAAGTFDS.
Variants here have more than six changes.
Affinities are written as log10 Kd with Kd in nM; a lower number is a better binder.
Replicates are averaged; those with no signal do not enter the mean.
"nd" means that the variant was in the library but no mating with the target was seen in any replicate; the authors take this as a sign of poor binding, and no number exists.
In the paper, a design with two or fewer of six values counts as a poor binder.
Of ten entries with the parent sequence, four were seen in most replicates (averages 0.34 to 2.37), three in one and three in none, so single entries are noisy.
Empty control strains, which show no peptide, gave a signal in 1% of pairings with all heavy chain designs; the median was 2.08 and 95% of these signals were weaker than 0.84. No background was subtracted. For each scFv, signals with the empty controls are counted beside the result.
The range of this assay differs from that of the first round, and the authors advise against merging the two.

CDR-H1	CDR-H2	CDR-H3	group	mean log10 Kd (nM)	detected	signal with controls
GFEMNSYGIS	VDYADGRRTIYTDSVK	GRAAGTFVS	Ctrl	2.34	2/6	0/18
GFDLNEYGIS	VIYADGKRTAYSDSVK	GEAAGTFDF	En_HC	-0.03	6/6	0/18
GFDLNEYGIS	VIYADGMRTAYSDSVK	GNTAGTFDV	En_Gen	-0.10	6/6	0/18
GFDIDEYGIS	VIYADGMRTFYTDSVK	GELAGTFDA	En_HC	-0.29	6/6	0/18
GFDLDEYGIS	VIYADGRRTFYQDSVK	GNVAGTFDK	En_HC	0.36	6/6	0/18
GFNLNEYGIS	VIYADGRRTFYADSVK	GGQAGTFDM	En_HC	0.27	5/6	0/18
GFDLNEYGIS	VIYADGKRTAYIDSVK	GEVAGTFDV	En_Gen	-0.52	6/6	0/18
GFDLNEYGIS	VIYADGKRTQYIDSVK	GEAAGTFDS	En_HC	-0.24	6/6	0/18
GFDLNEYGIS	VIYADGLRTAYADDVK	GNVAGTFDV	En_Gen	-0.38	6/6	0/18
GFNLNEYGIS	VIYADGRRKFYADSVK	GETAGTFDV	En_HC	-0.43	6/6	0/18
GFKIEEYGIS	VIYADGVRMMYASNFK	GKIAGTFNL	En_Gibbs	0.93	6/6	0/18
GFDINEYGIS	VIYADGSRTAYANTVK	GQWGCVFYV	En_Gibbs	nd	0/6	0/18
GFDLNEYGIS	VIYADGVRTAYADSVK	GNQAGTFDL	En_Gen	-0.38	6/6	0/18
GFDLNEYGIS	VIYADGRRTFYADSVK	GTEAGTFDQ	En_HC	2.12	5/6	0/18
GFDLNEYGIS	VIYADGQRTVYADSVK	GNVAGTFDI	En_Gen	-0.57	6/6	1/18
GFDLNEYGIS	VIYADGRRTFYTDSVK	GNLAGTFLV	En_HC	-0.21	6/6	0/18
GKDLEEYGIS	VIYADGHRAAYIDSVK	GIHMDVMTV	En_Gibbs	nd	0/6	0/18
GFILDEYGIS	VIYADGERTMYSNRVK	GNEGGTFDF	En_Gibbs	0.66	2/6	0/18
GFQLDEYGIS	VIYADGRRTFYADSVK	GEAAGTFDI	En_HC	-0.30	6/6	0/18
GFDLNEYGIS	VIYADGSRTAYSDSVK	GENAGTFDV	En_Gen	0.24	6/6	0/18
GFDLDEQGIS	VIYADGQRTAYADQVK	GMIGDGMRT	En_Gibbs	nd	0/6	0/18
GFDLNEYGIS	VIYADGRRTVYSDSVK	GEVAGTFDV	En_HC	-0.21	6/6	0/18
GFDLEKYGIS	VIYADGIRKVYDQSVK	GQMAGSFTV	En_Gibbs	2.29	2/6	0/18
GFDLNEYGIS	VIYADGMRSYYADSVK	GENAGTFDV	En_Gen	-0.43	6/6	0/18
GFDLNEYGIS	VIYADGRRTAYTDSVK	GTNAGTFDI	En_HC	-0.52	6/6	0/18
GFDLNEYGIS	VIYADGMRTFYSDSVK	GEAAGTFVS	En_HC	0.35	2/6	0/18
GFDLNEYGIS	VIYADGSRTVYADSVK	GENAGTFDM	En_Gen	0.39	4/6	0/18
GFDLNEYGIS	VIYADGMRTSYADSVK	GNNAGTFDV	En_Gen	-0.16	6/6	1/18
GFELQEYGIS	VIYADGMKQSYRDKFK	GGIAGNFDM	En_Gibbs	nd	0/6	0/18
GFQINEYGIS	VIYADGLRAAYSQDVK	GMDTGDFVD	En_Gibbs	1.60	1/6	0/18
GFDLDEYGIS	VIYADGKRKAYADSVK	GNVAGTFDV	En_Gen	-0.88	6/6	1/18
GFDIDEYGIS	VIYADGMRTFYADSVK	GTNAGTFDS	En_HC	-0.66	6/6	0/18
GFDLNEYGIS	VIYADGRRTFYSDSVK	GENAGTFDI	En_HC	-0.40	6/6	1/18
GKGLDEYGVS	VIYADGVRQSYADDVK	GGIAGTFLY	En_Gibbs	1.12	6/6	0/18
GFNLDEYGIS	VIYADGFRAAYKDKVK	GDDILLGWD	En_Gibbs	nd	0/6	0/18
GFDLEDYGIS	VIYADGQRTAYADSVK	GEIAGTFDV	En_HC	0.02	6/6	0/18
GFDIEEYGIS	VIYADGQRTMYTPNVK	GNHTGLVDI	En_Gibbs	nd	0/6	0/18
GFDLQEYGIS	VIYADGARKSYTNSVK	GVWGGTMDV	En_Gibbs	2.99	1/6	0/18
GFDLNEYGVS	VIYADGFRTSYTDSVK	GNVVDLSMA	En_Gibbs	nd	0/6	0/18
GFDLNEYGIS	VIYADGMRTAYSDKVK	GEVAGTFDV	En_Gen	-0.51	6/6	1/18
GFDLNEYGIS	VIYADGMRSVYADSVK	GNVAGTFDV	En_Gen	-0.31	6/6	0/18
GFQLNEYGIS	VIYADGKRSEYQDSVK	GGINSSFSV	En_Gibbs	nd	0/6	0/18
GFDLDEYGIS	VIYADGVRTAYADDVK	GNVAGTFDT	En_Gen	-0.07	6/6	0/18
GFDLNEYGIS	VIYADGKRTAYIDSVK	GEAAGTFDS	En_HC	0.48	2/6	0/18
GFDLNEYGIS	VIYADGMRTAYADSVK	GNTAGTFDQ	En_Gen	-0.75	6/6	0/18
GFDLEEYGIS	VIYADGSRTSYQESVK	GLVGGMLDM	En_Gibbs	nd	0/6	0/18
GFDLNEYGIS	VIYADGRRTFYSDSVK	GGNGGTFDM	En_HC	0.43	6/6	0/18
GFDLNEYGIS	VIYADGKRTAYTDSVK	GNVAGTFDQ	En_Gen	-0.46	6/6	0/18

7 of these entries, quoted again:

CDR-H1,CDR-H2,CDR-H3,group,mean log10 Kd (nM),detected,signal with controls
GFELQEYGIS,VIYADGMKQSYRDKFK,GGIAGNFDM,En_Gibbs,nd,0/6,0/18
GFKIEEYGIS,VIYADGVRMMYASNFK,GKIAGTFNL,En_Gibbs,0.93,6/6,0/18
GKGLDEYGVS,VIYADGVRQSYADDVK,GGIAGTFLY,En_Gibbs,1.12,6/6,0/18
GFDLDEQGIS,VIYADGQRTAYADQVK,GMIGDGMRT,En_Gibbs,nd,0/6,0/18
GFQLNEYGIS,VIYADGKRSEYQDSVK,GGINSSFSV,En_Gibbs,nd,0/6,0/18
GFNLDEYGIS,VIYADGFRAAYKDKVK,GDDILLGWD,En_Gibbs,nd,0/6,0/18
GKDLEEYGIS,VIYADGHRAAYIDSVK,GIHMDVMTV,En_Gibbs,nd,0/6,0/18